Experimental data: US7435740B2 (dated 2008)

By UniProt entry, the sequences of proteins in these tests, tags left out.
UniProt P30542, whole entry: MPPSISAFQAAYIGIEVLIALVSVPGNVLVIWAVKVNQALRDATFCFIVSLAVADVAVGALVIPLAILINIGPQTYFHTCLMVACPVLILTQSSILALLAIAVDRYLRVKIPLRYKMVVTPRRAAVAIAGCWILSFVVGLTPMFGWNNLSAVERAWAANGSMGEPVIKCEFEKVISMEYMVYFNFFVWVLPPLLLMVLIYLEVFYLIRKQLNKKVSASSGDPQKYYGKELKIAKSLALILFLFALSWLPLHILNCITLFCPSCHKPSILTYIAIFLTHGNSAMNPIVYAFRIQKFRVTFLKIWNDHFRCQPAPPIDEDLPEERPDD

Columns and labels:
[1] = biological target: human recombinant A2A adenosine receptors (Homo sapiens, UniProt P29274); experiment: Radioligand binding to hA2A receptors expressed in CHO cells
[2] = biological target: human recombinant A1 adenosine receptor (Homo sapiens, UniProt P30542); experiment: [3H]-DPCPX binding to human A1 adenosine receptor expressed in CHO cells

- Ki [1]: > 5000 nM
- Ki [2]: 2530 nM
SMILES: CCCn1c(=O)c2c(nc3[nH]c(C)cn32)n(Cc2ccccc2)c1=O [Compound 10, 1-Benzyl-7-methyl-3-propyl-1H-imidazo[1,2-f]purine-2,4(3H,8H)-dione]
